This note sets out measurements from US10028938B2, “Antiviral agents and uses thereof” (Griffith University, priority 2014, dated 2018).

For test [1], the target named is T1, hPIV-3 HN (UniProt P08492).
T1 sequence (P08492 1-572): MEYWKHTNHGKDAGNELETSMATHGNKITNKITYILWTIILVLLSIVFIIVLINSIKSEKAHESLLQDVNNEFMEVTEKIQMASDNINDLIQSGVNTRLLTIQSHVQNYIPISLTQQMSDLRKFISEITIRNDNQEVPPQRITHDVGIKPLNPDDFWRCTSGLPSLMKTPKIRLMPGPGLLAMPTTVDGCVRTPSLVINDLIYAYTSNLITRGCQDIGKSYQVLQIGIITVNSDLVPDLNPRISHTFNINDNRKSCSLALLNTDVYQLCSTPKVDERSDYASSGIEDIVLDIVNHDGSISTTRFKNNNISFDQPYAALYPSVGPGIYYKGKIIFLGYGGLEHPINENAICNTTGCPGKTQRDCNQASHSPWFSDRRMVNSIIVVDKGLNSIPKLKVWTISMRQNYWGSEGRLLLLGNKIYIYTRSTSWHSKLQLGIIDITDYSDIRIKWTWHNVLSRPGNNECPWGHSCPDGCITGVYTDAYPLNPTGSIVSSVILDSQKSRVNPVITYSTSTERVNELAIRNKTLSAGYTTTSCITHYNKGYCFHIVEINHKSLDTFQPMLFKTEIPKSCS
It is filed as biochemical, hPIV-3 (strain C-243). Also noted: rows headed: NI Mean IC50; hPIV-3 HN; 3 independent experiments; Ki; Km value for MUN; other: whole hPIV-3 virus, [I]=0; fold improvement in NI assay; other: versus 6; hPIV-3 HN NI IC50; other: text; other: text, unit given as M.

In test [2] the target is T1, hPIV-3 HN. The test is classed as biochemical, hPIV-3 (strain C-243). Details: rows headed: HI Mean IC50; hPIV-3 HN; 3 independent experiments; fold improvement in HI assay; other: versus 6; hPIV-3 HN HI IC50; other: text; other: text, unit given as M.
Test [3] addresses T1, hPIV-3 HN. The test is classed as biochemical, hPIV-3 (strain C-243). Details: rows headed: NI Mean IC50; hPIV-3 HN; 3 independent experiments; Ki; Km value for MUN; other: whole hPIV-3 virus, [I]=0; fold improvement in NI assay; other: versus 6; hPIV-3 HN NI IC50; other: text; other: text, unit given as M. The source holds these as a separate data set.
For test [4], the target named is T2, hPIV-3 HN (Human parainfluenza 3 virus, UniProt P08492). The test is classed as binding.
The target of test [5] is T2, hPIV-3 HN. It is filed as biochemical, hPIV-3 (strain C-243). Particulars: read-out: hPIV-3 NI (IC50 values).
Setting [6] is: relative to ArH4′, 20 μM hPIV-3 HN, protein:ligand 1:100.

Molecules are shown by their SMILES. Several values for one entry are separate records, joined by “and”; a condition that tells them apart may be missing. Equal entries are not always repeated. Where two headings read alike, the source gives them in different places.

The Ki is the dissociation constant of the complex between target and ligand, obtained from inhibition or displacement. As a reminder, the IC50 is the concentration that gives 50% inhibition. For the compound `CC(C)C(=O)N[C@H]1[C@H]([C@H](O)[C@H](O)CO)OC(C(=O)[O-])=C[C@@H]1n1cc(-c2ccccc2)nn1.[Na+]` [Compound 10, Sodium 2,6-anhydro-3,4,5-trideoxy-5-isobutyramido-4-(4-phenyl-[1,2,3,]triazol-1-yl)-D-glycero-D-galacto-non-2-enonate], the Ki on hPIV-3 HN [1] turned out to be 1.3 µM. Further, the “fold improvement in HI assay” value on hPIV-3 HN [2] is approximately 11 fold. The half-inhibitory concentration (IC50) on hPIV-3 HN [2] (read-out: HI Mean IC50) turned out to be 1.46 µM. Besides, the concentration for half-maximal inhibition (IC50) at hPIV-3 HN [2] (read-out: hPIV-3 HN HI IC50) came to 1.5 µM. For the same compound, on hPIV-3 HN [3], the “fold improvement in NI assay” value was approximately 8 fold. For the same compound, the IC50 on hPIV-3 HN [3] (read-out: NI Mean IC50) worked out at 2.74 µM. Besides, on hPIV-3 HN [4] (range over isobutyramido protons), the “relative STD NMR signal intensities, C5 isobutyramido moiety's protons” value is listed as 42-54%. Also, the “Relative STD NMR effect, ArH4′” value at hPIV-3 HN [4] (reference signal, 20 μM hPIV-3 HN, protein:ligand 1:100) is reported as 100%. Moreover, at hPIV-3 HN [4] (setting [6]), the “Relative STD NMR effect, ArH2′ ArH6′” value is reported as 95%; the “Relative STD NMR effect, ArH3′ ArH5′” value is given as 100%; the “Relative STD NMR effect, H3” value came out at 80%; the “Relative STD NMR effect, H4” value amounted to 59%. Besides, on hPIV-3 HN [4] (setting [6]), the “Relative STD NMR effect, H5” value is 50% and 49%; the “Relative STD NMR effect, H6” value is 49% and 47%; the “Relative STD NMR effect, H7” value was determined as 36%; the “Relative STD NMR effect, H8” value came to 35%. In addition, on hPIV-3 HN [4] (setting [6]), the “Relative STD NMR effect, H9” value was 24%; the “Relative STD NMR effect, H9′” value came out at 21%; the “Relative STD NMR effect, Isoprop-2CH3” value was found to be 42%; the “Relative STD NMR effect, Isoprop-CH” value was determined as 54%. Moreover, the “Relative STD NMR effect, Triazole CH” value at hPIV-3 HN [4] (setting [6]) was determined as 75%. The IC50 on hPIV-3 HN [5] amounted to 1.38 µM.
